# Source: paper PMC11944851, “Computationally Guided Design, Synthesis, and Evaluation of Novel Non-Hydroxamic Histone Deacetylase Inhibitors, Based on N-Trifluoroacetamide as a Zinc-Binding Group, Against Breast Cancer” (Pharmaceuticals, 2025)
# Key:
# MDA-MB-231 cells = experiment: MTT cell viability, MDA-MB-231; format: cell-based; details: ratio of IC50
# Method: […] This effect is undoubtedly related to the mechanism of enzyme inhibition.
# (§1) The BC cell lines MCF-7 and MDA-MB-231 were cultured in high-glucose DMEM medium with phenol red, supplemented with 7% and 10% fetal bovine serum (Gibco, Waltham, MA, USA), respectively, 1% Penicillin/Streptomycin (10,000 U/mL, Gibco, Waltham, MA, USA), and 1% non-essential amino acids (Gibco, Waltham, MA, USA). Cell cultures were maintained in a temperature-controlled incubator at 37 °C and 5% CO2 atmosphere. For the 72 h assays with MDA-MB-231, 1.8 x 10³ cells/well were seeded in 100 µL of medium.
# (§2) The 3-(4,5-dimethylthiazol-2-yl)-2,5-diphenyl tetrazolium bromide assay was used to evaluate the effect of the designed compounds on cell viability. These compounds were initially dissolved in DMSO (dimethyl sulfoxide) as stock solutions at 150 mM. […] The optical density of the wells was measured at 550 nm using an ELISA reader (MultiSkan, Thermo Scientific, Waltham, MA, USA). Finally, cell viability was expressed as a percentage relative to the negative control (untreated and 0.46% DMSO).
# (§3) Cytotoxicity data were analyzed using one-way ANOVA to evaluate differences between the treated groups and the negative control (DMSO). […]
# MCF-7 cells = experiment: MTT cell viability, MCF-7; format: cell-based; details: ratio of IC50
# Method: The results confirmed the cytotoxic activity of these compounds also in this cell line.
# as §1, §2, §3
compound,measurement,setting,value
"O=C(CCCCCCC(=O)Nc1ccccc1)NO [SAHA, suberoylanilide hydroxamic acid, reference compound]",Selectivity Index MCF-10A/ MDA-MB-231,MDA-MB-231 cells,0.86
same,Selectivity Index MCF-10A/ MCF-7,MCF-7 cells,0.71
